Patent publication US7291612B2, “Immunomodulatory compounds” (Active Biotech A.B., priority 2002, dated 2007)

The chains behind the UniProt entries cited, without tags or fusion partners. Residues count along the entry.
UniProt P33681, 35-242 limits assumed: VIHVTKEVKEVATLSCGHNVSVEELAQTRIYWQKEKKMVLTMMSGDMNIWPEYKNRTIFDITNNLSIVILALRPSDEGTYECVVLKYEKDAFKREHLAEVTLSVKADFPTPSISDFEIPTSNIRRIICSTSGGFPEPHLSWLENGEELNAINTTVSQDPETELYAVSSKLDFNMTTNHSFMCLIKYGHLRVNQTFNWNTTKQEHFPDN

Target: CD80-CD28 interaction (Homo sapiens, UniProt P33681)
Assay: cell free Homogenous Time Resolved Fluorescence (HTRF) assay, inhibition of the CD80-CD28 interaction
Settings: read-out: Activity (EC50 in summary form), 4 hours at room temperature

SMILES | EC50
CN(C)CCCNC(=O)c1ccc(-n2nc3c4cccc(F)c4[nH]cc-3c2=O)cc1 [Example 66, N-(3-Dimethylaminopropyl)-4-(6-fluoro-3-oxo-3,5-dihydro-pyrazolo[4,3-c]quinolin-2-yl]-benzamide hydrochloride] | < 1 µM
CC1(C)CC(NC(=O)c2ccc(-n3nc4c5cccc(F)c5[nH]c(C5CC5)c-4c3=O)cc2)CC(C)(C)N1 | < 1 µM
CN(C)CCCCCCNC(=O)c1ccc(-n2nc3c4cccc(F)c4[nH]cc-3c2=O)cc1 | < 1 µM

Now from value to molecule:

EC50 | SMILES
< 1 µM | CN1C(C)(C)CC(NC(=O)c2ccc(-n3nc4c5cccc(F)c5[nH]c(C5CC5)c-4c3=O)cc2)CC1(C)C
< 1 µM | CN(C)CCCNC(=O)c1ccc(-n2nc3c4ccccc4[nH]c(C4CC4)c-3c2=O)cc1 [Example 65, N-(3-Dimethylaminopropyl)-4-(4-cyclopropyl-3-oxo-3,5-dihydro-pyrazolo[4,3-c]quinolin-2-yl]-benzamide]
< 1 µM | CCCC(C)C(=O)Nc1ccc(-n2nc3c4cccc(F)c4[nH]cc-3c2=O)cc1 (stereo not drawn) [Example 2, 2-Methyl-pentanoic acid [4-(6-fluoro-3-oxo-3,5-dihydro-pyrazolo[4,3-c]quinolin-2-yl)-phenyl]-amide]

Where a name gives a salt, the structure may show the parent alone.
